In patent US6924264:

Biological target: GLP-1 receptor of RINm5f cell membranes (UniProt P32301)
Test: cell-based or functional assay

In the case of exendin-4 (peptide), the GLP-1 Cyclase EC50 was 270 pM.
